According to patent US9404916B2, “Use of a protein kinase inhibitor to detect immune cells, such as T cells” (University College Cardiff Consultants Limited, priority 2008, dated 2016):

System: PPI15-24-specific autoreactive CTL

Structure (SMILES): Cc1nc(Nc2ncc(C(=O)Nc3c(C)cccc3Cl)s2)cc(N2CCN(CCO)CC2)n1 [dasatinib, N-(2-chloro-6-methyl-phenyl)-2-(6-(4-(2-hydroxyethyl)-piperazin-1-yl)-2-methylpyrimidin-4-ylamino)thiazole-5-carboxamide]
- increase in the percentage of autoreactive CTL: seven-fold
- direct ex vivo HLA A2/PPI15-24 tetramer staining in healthy control subjects (healthy HLA A2-matched control subjects): did not increase
